“And” between values parts separate entries of the source, which are not always exact repeats. Equal values may be shown once.
Key:
[1] = target: Muscarinic acetylcholine receptor M1 (Rattus norvegicus, UniProt P08482); assay: Binding affinity for rat cortex muscarinic acetylcholine receptor M1 using [3H]pirenzepine
[2] = target: Muscarinic acetylcholine receptor M3 (Rattus norvegicus, UniProt P08483); assay: Binding affinity for rat salivary gland muscarinic acetylcholine receptor M3 using [3H]N-methylscopolamine
Rattus norvegicus = species: Rattus norvegicus; assay: Selectivity index calculated as ID50/ED30
[3] = target: Muscarinic receptor M2 and M3 (Rattus norvegicus) (UniProt P08483+P10980); assay: Selectivity index as binding affinity for M2 and M3 receptors; type: protein assay

Amino acid sequences for entries named in this document (tags omitted). A change or cut given only in a name is not applied to a line headed by its entry.
UniProt P08482: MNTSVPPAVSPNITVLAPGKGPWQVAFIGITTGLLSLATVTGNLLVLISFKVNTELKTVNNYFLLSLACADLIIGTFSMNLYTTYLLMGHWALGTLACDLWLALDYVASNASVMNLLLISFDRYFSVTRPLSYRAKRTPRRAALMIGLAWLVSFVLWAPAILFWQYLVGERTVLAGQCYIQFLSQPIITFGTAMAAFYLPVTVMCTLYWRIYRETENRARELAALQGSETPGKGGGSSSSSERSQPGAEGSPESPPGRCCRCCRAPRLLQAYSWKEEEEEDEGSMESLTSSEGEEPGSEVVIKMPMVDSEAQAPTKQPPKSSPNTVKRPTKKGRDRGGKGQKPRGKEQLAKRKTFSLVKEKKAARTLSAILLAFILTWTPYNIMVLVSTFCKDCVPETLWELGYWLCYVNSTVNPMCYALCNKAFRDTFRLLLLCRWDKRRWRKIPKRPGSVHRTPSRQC
UniProt P08483, whole entry: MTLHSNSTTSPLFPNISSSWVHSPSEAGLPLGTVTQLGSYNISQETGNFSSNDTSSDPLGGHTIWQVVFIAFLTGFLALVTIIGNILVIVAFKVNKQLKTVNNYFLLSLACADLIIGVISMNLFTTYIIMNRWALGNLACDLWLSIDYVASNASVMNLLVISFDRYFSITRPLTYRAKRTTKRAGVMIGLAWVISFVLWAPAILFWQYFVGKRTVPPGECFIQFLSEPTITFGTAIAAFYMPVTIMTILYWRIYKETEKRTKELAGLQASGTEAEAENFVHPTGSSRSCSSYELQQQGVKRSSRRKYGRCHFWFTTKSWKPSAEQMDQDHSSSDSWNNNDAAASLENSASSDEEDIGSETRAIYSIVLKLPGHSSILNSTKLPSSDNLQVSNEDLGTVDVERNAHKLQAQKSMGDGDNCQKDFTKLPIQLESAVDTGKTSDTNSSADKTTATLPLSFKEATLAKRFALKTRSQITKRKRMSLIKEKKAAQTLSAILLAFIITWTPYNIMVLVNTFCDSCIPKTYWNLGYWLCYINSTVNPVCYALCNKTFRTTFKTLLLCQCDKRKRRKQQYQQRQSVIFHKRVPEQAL
UniProt P10980, whole entry, looked up: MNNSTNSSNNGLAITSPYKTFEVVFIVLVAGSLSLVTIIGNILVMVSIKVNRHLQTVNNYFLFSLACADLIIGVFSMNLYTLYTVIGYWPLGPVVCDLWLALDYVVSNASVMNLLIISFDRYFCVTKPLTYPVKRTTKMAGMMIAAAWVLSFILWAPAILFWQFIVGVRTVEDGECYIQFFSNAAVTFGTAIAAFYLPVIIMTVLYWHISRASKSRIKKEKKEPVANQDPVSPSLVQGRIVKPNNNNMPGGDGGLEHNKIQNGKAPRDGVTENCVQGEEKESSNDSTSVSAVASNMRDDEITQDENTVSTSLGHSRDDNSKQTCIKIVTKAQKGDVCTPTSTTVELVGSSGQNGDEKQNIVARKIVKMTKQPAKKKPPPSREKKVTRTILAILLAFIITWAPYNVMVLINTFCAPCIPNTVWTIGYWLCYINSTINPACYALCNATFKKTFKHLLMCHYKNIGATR

| Structure (SMILES) | Ki [1] | Ki [2] | Selectivity index (Rattus norvegicus) | Selectivity index [3] |
| --- | --- | --- | --- | --- |
| O=C(O[C@H]1CN2CCC1CC2)N1CCc2ccccc2C1c1ccsc1 (single isomer, unassigned; 12a) | 0.95 nM | 3.5 nM | 6.9 | – |
| O=C(O[C@H]1CN2CCC1CC2)N1CCc2ccccc2[C@@H]1c1ccccc1 [SOLIFENACIN] | 10 nM | – | – | – |
| O=C(O[C@H]1CN2CCC1CC2)N1CCc2ccccc2C1Cc1ccccc1 (stereo partly specified) | 3.9 nM and 15 nM | 25 nM and 160 nM | – | 3 and > 6.3 |
| O=C(O[C@H]1CN2CCC1CC2)N1CCc2ccccc2[C@H]1c1ccccc1 | 0.32 nM | – | – | – |
| O=C(NC(c1ccccc1)c1ccccc1)OC1CN2CCC1CC2 (stereo unspecified) | 1.5 nM | 2 nM | – | – |
| O=C(O[C@H]1CN2CCC1CC2)N1CC(O)c2ccccc2C1c1ccccc1 (stereo partly specified) | – | – | – | 4.1 |
| O=C(O[C@H]1CN2CCC1CC2)N1C[C@H](O)c2ccccc2[C@H]1c1ccccc1 | 11 nM | 150 nM | – | 23 |
| O=C(O[C@H]1CN2CCC1CC2)N1CCc2ccccc2C1C1CCCCC1 (stereo partly specified) | 6.6 nM and 12 nM | 6.7 nM and 63 nM | – | – |
| O=C(O[C@H]1CN2CCC1CC2)N1CCc2ccccc2C1c1ccsc1 (single isomer, unassigned; 12b) | 8.3 nM | 21 nM | 5.4 | – |
| O=C(O[C@H]1CN2CCC1CC2)N1Cc2ccccc2C(c2ccccc2)C1 (stereo partly specified) | 52 nM | > 1000 nM | – | – |
| O=C(O[C@@H]1CN2CCC1CC2)N1CCc2ccccc2[C@H]1c1ccccc1 | 440 nM | – | – | – |
| O=C(O[C@H]1CN2CCC1CC2)N1CCc2ccccc2C1c1cccs1 (stereo partly specified) | 1.8 nM and 2.4 nM | 3.6 nM and 18 nM | – | – |
| O=C(O[C@H]1CN2CCC1CC2)N1C[C@@H](O)c2ccccc2[C@@H]1c1ccccc1 | 41 nM | 35 nM | – | 24 |
| O=C(O[C@@H]1CN2CCC1CC2)N1CCc2ccccc2[C@@H]1c1ccccc1 | 230 nM | – | – | – |
| O=C(O[C@H]1CN2CCC1CC2)N1CCc2ccccc2C1c1ccccc1 (stereo partly specified) | 1.4 nM | – | – | – |
| O=C(O[C@H]1CN2CCC1CC2)N1Cc2ccccc2C1c1ccccc1 (stereo partly specified) | 8.4 nM | 28 nM | – | – |

Reference: ChEMBL document CHEMBL1140447, “Synthesis and antimuscarinic properties of quinuclidin-3-yl 1,2,3,4-tetrahydroisoquinoline-2-carboxylate derivatives as novel muscarinic receptor antagonists” (J Med Chem, 2005)
